Assay results as given in patent publication US20210395313A1, “PEPTIDE PAC1 ANTAGONISTS” (AMGEN INC., priority 2017, published 2021).

Key:
human PAC1 receptor = molecular target: T1, human PAC1 receptor (Homo sapiens, UniProt P41586); test: LANCE Ultra cAMP accumulation antagonist assay in SHSY-5Y cells; format: cell-based;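 also: inhibition of cAMP accumulation evoked by PAC1 agonist at its EC80 in SHSY-5Y cells endogenously expressing receptor, 30 min preincubation then 15 min agonist, TR-FRET readout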
T1 construct: SHSY-5Y (human neuroblastoma cell line) and RG-2 (rat glioma cell line) cells endogenously express human and rat PAC1 receptors, respectively; endogenous in cells; host or cells: SHSY-5Y human neuroblastoma cells
T1 sequence (P41586 21-468): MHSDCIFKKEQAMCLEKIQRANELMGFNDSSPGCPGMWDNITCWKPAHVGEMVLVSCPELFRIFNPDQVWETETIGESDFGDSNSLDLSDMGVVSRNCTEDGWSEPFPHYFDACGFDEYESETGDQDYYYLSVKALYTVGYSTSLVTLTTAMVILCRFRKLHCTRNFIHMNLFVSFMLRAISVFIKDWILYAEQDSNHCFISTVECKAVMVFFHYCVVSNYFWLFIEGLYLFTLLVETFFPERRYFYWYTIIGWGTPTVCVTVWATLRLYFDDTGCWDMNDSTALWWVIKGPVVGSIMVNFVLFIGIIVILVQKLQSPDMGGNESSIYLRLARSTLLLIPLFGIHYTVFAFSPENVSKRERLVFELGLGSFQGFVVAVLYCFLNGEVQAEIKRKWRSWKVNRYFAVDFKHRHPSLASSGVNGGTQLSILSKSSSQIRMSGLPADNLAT

rat PAC1 receptor = molecular target: T2, rat PAC1 receptor (Rattus norvegicus, UniProt P32215); test: LANCE Ultra cAMP accumulation antagonist assay in RG-2 cells; format: cell-based;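 also: RG-2 rat glioma cells endogenously expressing PAC1, test peptide preincubated 30 min, then PAC1 agonist added at its EC80 for 15 min, cAMP accumulation read by LANCE Ultra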
T2 construct: SHSY-5Y (human neuroblastoma cell line) and RG-2 (rat glioma cell line) cells endogenously express human and rat PAC1 receptors, respectively; endogenous in cells; host or cells: RG-2 rat glioma cells
T2 sequence (P32215 20-523): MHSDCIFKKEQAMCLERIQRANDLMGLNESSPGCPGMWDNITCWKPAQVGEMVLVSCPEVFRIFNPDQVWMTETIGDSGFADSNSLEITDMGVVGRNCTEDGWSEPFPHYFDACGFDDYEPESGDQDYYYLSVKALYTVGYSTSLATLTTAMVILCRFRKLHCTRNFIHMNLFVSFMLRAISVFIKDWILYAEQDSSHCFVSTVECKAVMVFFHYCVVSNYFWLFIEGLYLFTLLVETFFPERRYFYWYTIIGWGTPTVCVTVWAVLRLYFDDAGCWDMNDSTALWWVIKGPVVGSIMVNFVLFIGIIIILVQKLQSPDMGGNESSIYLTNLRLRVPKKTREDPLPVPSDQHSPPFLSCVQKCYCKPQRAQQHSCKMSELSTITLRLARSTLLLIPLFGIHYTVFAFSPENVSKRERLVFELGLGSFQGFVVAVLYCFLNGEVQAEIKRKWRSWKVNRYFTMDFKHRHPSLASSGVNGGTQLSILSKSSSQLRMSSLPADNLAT

| SMILES | IC50 (human PAC1 receptor) [nM] | IC50 (rat PAC1 receptor) [nM] |
| --- | --- | --- |
| CC[C@H](C)[C@H](NC(=O)[C@H](C)NC(=O)[C@H](CCCCN)NC(=O)[C@H](CCCNC(=N)N)NC(=O)[C@H](Cc1ccccc1)NC(=O)[C@H](CCC(N)=O)NC(=O)[C@@H]1CSSC[C@H](N)C(=O)N[C@@H](CC(=O)O)C(=O)N[C@@H](C)C(=O)N[C@@H]([C@@H](C)O)C(=O)N1)C(=O)N[C@@H](CC(=O)O)C(=O)N[C@@H](CC(=O)O)C(=O)N[C@H]1CSSC[C@@H](C(=O)N[C@@H](CCSC)C(=O)N[C@@H](CCCCN)C(=O)N[C@@H](CCC(N)=O)C(=O)N[C@@H](CCCCN)C(=O)N[C@@H](CCCCN)C(=O)N[C@@H](CCCCN)C(=O)N[C@@H](CCC(=O)O)C(=O)N[C@@H](Cc2ccccc2)C(=O)N[C@@H](CCCCN)C(=O)N[C@@H](C)C(=O)NCC(N)=O)NC(=O)C(C)(C)NC(=O)[C@H](CCCCN)NC(=O)[C@H](Cc2ccccc2)NC(=O)[C@H](CCCCN)NC(=O)[C@H](CO)NC(=O)CNC(=O)[C@@H]2CCCN2C(=O)[C@H](C(C)C)NC(=O)[C@H](CC(N)=O)NC(=O)[C@H](CO)NC(=O)[C@H](Cc2c[nH]cn2)NC(=O)[C@H](Cc2c[nH]cn2)NC(=O)[C@H](CCC(=O)O)NC(=O)[C@H](CCC(N)=O)NC(=O)[C@H](CCCCN)NC(=O)[C@H](CCC(N)=O)NC1=O [compound 97] | 1 to 100 | 1 to 100 |
| CC[C@H](C)[C@H](NC(=O)[C@H](C)NC(=O)[C@H](CCCCN)NC(=O)[C@H](CCCNC(=N)N)NC(=O)[C@H](Cc1ccccc1)NC(=O)[C@H](CCC(N)=O)NC(=O)[C@@H]1CSSC[C@H](N)C(=O)N[C@@H](CC(=O)O)C(=O)N[C@@H](C)C(=O)N[C@@H]([C@@H](C)O)C(=O)N1)C(=O)N[C@@H](CC(=O)O)C(=O)N[C@@H](CC(=O)O)C(=O)N[C@H]1CSSC[C@@H](C(=O)N[C@@H](CCSC)C(=O)N[C@@H](CCCCN)C(=O)N[C@@H](CCC(N)=O)C(=O)N[C@@H](CCCCN)C(=O)N[C@@H](CCCCN)C(=O)N[C@@H](CCCCN)C(=O)N[C@@H](CCC(=O)O)C(=O)N[C@@H](Cc2ccccc2)C(=O)N[C@@H](CCCCN)C(=O)N[C@@H](C)C(=O)N[C@@H](C)C(N)=O)NC(=O)C(C)(C)NC(=O)[C@H](CCCCN)NC(=O)[C@H](Cc2ccccc2)NC(=O)[C@H](C(C)C)NC(=O)[C@H](CO)NC(=O)CNC(=O)[C@@H]2CCCN2C(=O)[C@H](C(C)C)NC(=O)[C@H](CC(N)=O)NC(=O)[C@H](CO)NC(=O)[C@H](Cc2c[nH]cn2)NC(=O)[C@H](Cc2c[nH]cn2)NC(=O)[C@H](C)NC(=O)[C@H](CCC(N)=O)NC(=O)[C@H](CCCCN)NC(=O)[C@H](CCC(N)=O)NC1=O [compound 98] | 1 to 100 | 0.01 to 1 |
| CC[C@H](C)[C@H](NC(=O)[C@H](C)NC(=O)[C@H](CCCCN)NC(=O)[C@H](CCCNC(=N)N)NC(=O)[C@H](Cc1ccccc1)NC(=O)[C@H](CCC(N)=O)NC(=O)[C@@H]1CSSC[C@H](N)C(=O)N[C@@H](CC(=O)O)C(=O)N[C@@H](C)C(=O)N[C@@H]([C@@H](C)O)C(=O)N1)C(=O)N[C@@H](CC(=O)O)C(=O)N[C@@H](CC(=O)O)C(=O)N[C@H]1CSSC[C@@H](C(=O)N[C@@H](CCSC)C(=O)N[C@@H](CCCCN)C(=O)N[C@@H](CCC(N)=O)C(=O)N[C@@H](CCCCN)C(=O)N[C@@H](CCCCN)C(=O)N[C@@H](CCCCN)C(=O)N[C@@H](CCC(=O)O)C(=O)N[C@@H](Cc2ccccc2)C(=O)N[C@@H](CCCCN)C(=O)N[C@@H](C)C(=O)NCC(=O)NCC(=O)N[C@@H](CO)C(=O)O)NC(=O)C(C)(C)NC(=O)[C@H](CCCCN)NC(=O)[C@H](Cc2ccccc2)NC(=O)[C@H](C(C)C)NC(=O)[C@H](CO)NC(=O)CNC(=O)[C@@H]2CCCN2C(=O)[C@H](C(C)C)NC(=O)[C@H](CC(N)=O)NC(=O)[C@H](CO)NC(=O)[C@H](Cc2c[nH]cn2)NC(=O)[C@H](Cc2c[nH]cn2)NC(=O)[C@H](C)NC(=O)[C@H](CCC(N)=O)NC(=O)[C@H](CCCCN)NC(=O)[C@H](CCC(N)=O)NC1=O [compound 157] | 1 to 100 | 0.01 to 1 |
| CC[C@H](C)[C@H](NC(=O)[C@H](C)NC(=O)[C@H](CCCCN)NC(=O)[C@H](CCCNC(=N)N)NC(=O)[C@H](Cc1ccccc1)NC(=O)[C@H](CCC(N)=O)NC(=O)[C@@H]1CSSC[C@H](N)C(=O)N[C@@H](CC(=O)O)C(=O)N[C@@H](C)C(=O)N[C@@H]([C@@H](C)O)C(=O)N1)C(=O)N[C@@H](CC(=O)O)C(=O)N[C@@H](CC(=O)O)C(=O)N[C@H]1CSSC[C@@H](C(=O)N[C@@H](CCSC)C(=O)N[C@@H](CCCCN)C(=O)N[C@@H](CCC(N)=O)C(=O)N[C@@H](CCCCN)C(=O)N[C@@H](CCCCN)C(=O)N[C@@H](CCCCN)C(=O)N[C@@H](CCC(=O)O)C(=O)N[C@@H](Cc2ccccc2)C(=O)N[C@@H](CCCCN)C(=O)N[C@@H](C)C(=O)N[C@@H](CC(N)=O)C(=O)N[C@@H](CCCCN)C(=O)O)NC(=O)C(C)(C)NC(=O)[C@H](CCCCN)NC(=O)[C@H](Cc2ccccc2)NC(=O)[C@H](C(C)C)NC(=O)[C@H](CO)NC(=O)CNC(=O)[C@@H]2CCCN2C(=O)[C@H](C(C)C)NC(=O)[C@H](CC(N)=O)NC(=O)[C@H](CO)NC(=O)[C@H](Cc2c[nH]cn2)NC(=O)[C@H](Cc2c[nH]cn2)NC(=O)[C@H](C)NC(=O)[C@H](CCC(N)=O)NC(=O)[C@H](CCCCN)NC(=O)[C@H](CCC(N)=O)NC1=O [compound 161] | 0.01 to 1 | 0.01 to 1 |
| CC[C@H](C)[C@H](NC(=O)[C@H](C)NC(=O)[C@H](CCCCN)NC(=O)[C@H](CCCNC(=N)N)NC(=O)[C@H](Cc1ccccc1)NC(=O)[C@H](CCC(N)=O)NC(=O)[C@@H]1CSSC[C@H](N)C(=O)N[C@@H](CC(=O)O)C(=O)N[C@@H](C)C(=O)N[C@@H]([C@@H](C)O)C(=O)N1)C(=O)N[C@@H](CC(=O)O)C(=O)N[C@@H](CC(=O)O)C(=O)N[C@H]1CSSC[C@@H](C(=O)N[C@@H](CCSC)C(=O)N[C@@H](CCCCN)C(=O)N[C@@H](CCC(N)=O)C(=O)N[C@@H](CCCCN)C(=O)N[C@@H](CCCCN)C(=O)N[C@@H](CCCCN)C(=O)N[C@@H](CCC(=O)O)C(=O)N[C@@H](Cc2ccccc2)C(=O)N[C@@H](CCCCN)C(=O)N[C@@H](C)C(=O)NCC(N)=O)NC(=O)C(C)(C)NC(=O)[C@H](CCCCN)NC(=O)[C@H](Cc2ccccc2)NC(=O)[C@H](C(C)C)NC(=O)[C@H](CC(N)=O)NC(=O)CNC(=O)[C@@H]2CCCN2C(=O)[C@H](C(C)C)NC(=O)[C@H](CC(N)=O)NC(=O)[C@H](CO)NC(=O)[C@H](Cc2c[nH]cn2)NC(=O)[C@H](Cc2c[nH]cn2)NC(=O)[C@H](C)NC(=O)[C@H](CCC(N)=O)NC(=O)[C@H](CCCCN)NC(=O)[C@H](CCC(N)=O)NC1=O [compound 208] |  | 0.01 to 1 |
| CC[C@H](C)[C@H](NC(=O)[C@H](C)NC(=O)[C@H](CCCCN)NC(=O)[C@H](CCCNC(=N)N)NC(=O)[C@H](Cc1ccccc1)NC(=O)[C@H](CCC(N)=O)NC(=O)[C@@H]1CSSC[C@H](N)C(=O)N[C@@H](CC(=O)O)C(=O)N[C@@H](C)C(=O)N[C@@H]([C@@H](C)O)C(=O)N1)C(=O)N[C@@H](CC(=O)O)C(=O)N[C@@H](CC(=O)O)C(=O)N[C@H]1CSSC[C@@H](C(=O)N[C@@H](CCSC)C(=O)N[C@@H](CCCCN)C(=O)N[C@@H](CCC(N)=O)C(=O)N[C@@H](CCCCN)C(=O)N[C@@H](CCCCN)C(=O)N[C@@H](CCCCN)C(=O)N[C@@H](CCC(=O)O)C(=O)N[C@@H](Cc2ccccc2)C(=O)N[C@@H](CCCCN)C(=O)N[C@@H](C)C(=O)NCC(N)=O)NC(=O)C(C)(C)NC(=O)[C@H](CCCCN)NC(=O)[C@H](Cc2ccccc2)NC(=O)[C@H](C(C)C)NC(=O)CNC(=O)CNC(=O)[C@@H]2CCCN2C(=O)[C@H](C(C)C)NC(=O)[C@H](CC(N)=O)NC(=O)[C@H](CO)NC(=O)[C@H](Cc2c[nH]cn2)NC(=O)[C@H](Cc2c[nH]cn2)NC(=O)[C@H](C)NC(=O)[C@H](CCC(N)=O)NC(=O)[C@H](CCCCN)NC(=O)[C@H](CCC(N)=O)NC1=O [compound 209] |  | 0.01 to 1 |
